# From PubChem BioAssay (NCI)
# Several values for one entry are separate records, joined by “and”; a condition that tells them apart may be missing. Equal values may be shown once. This is a selection; strong and weak results do not stand in their true shares. Some structures show a salt or complex split into parts, the way the source records it. Activity calls are given as the source filed them. Cut-off read from the data, not from the text of the source: active = growth inhibition above about 70%; inactive = the rest.
# Tests used:
# [1] = NCI Yeast Anticancer Drug Screen. Data for the rad50 strain (AID 155);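 note: 0% = growth of vehicle-only cultures of the same strain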; settings: S. cerevisiae rad50 strain growth inhibition; at 50.0 µM; hits give high values
# [2] = NCI Yeast Anticancer Drug Screen. Data for the mec2-1 strain (AID 157); settings: S. cerevisiae mec2-1 strain, at 50.0 µM, hits give high values
# [3] = NCI Yeast Anticancer Drug Screen. Data for the sgs1 mgt1 strain (AID 161);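 note: 0% = growth of cultures given vehicle only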; settings: S. cerevisiae sgs1 mgt1 strain, at 50.0 µM, hits give high values
# [4] = NCI Yeast Anticancer Drug Screen. Data for the cln2 rad14 strain (AID 165);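 note: 0% = growth equal to vehicle treated cultures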; settings: S. cerevisiae cln2 rad14 strain, at 50.0 µM, hits give high values
# [5] = NCI Yeast Anticancer Drug Screen. Data for the bub3 strain (AID 167); settings: S. cerevisiae bub3 mutant strain, at 50.0 µM, hits give high values
# [6] = NCI Yeast Anticancer Drug Screen. Data for the mlh1 rad18 strain (AID 175); settings: S. cerevisiae mlh1 rad18 strain growth inhibition; at 50.0 µM; hits give high values
SMILES,growth inhibition [1],growth inhibition [2],growth inhibition [3],growth inhibition [4],growth inhibition [5],growth inhibition [6]
ClCCCc1cccnc1.O=[N+]([O-])c1cc([N+](=O)[O-])c(O)c([N+](=O)[O-])c1,inactive: -40.5%,inactive: -2.4%,inactive: 18.4%,inactive: 22.9%,inactive: 2.8%,inactive: 9.45%
CCN(CC)CCOC(=O)C(O)(c1ccccc1)c1cccc(C)c1C (stereo unspecified),inactive: -14.5%,inactive: 3.75%,inactive: -8.75%,inactive: -32.8%,inactive: -2.3%,inactive: 4%
CC(C)CC(CC(C)C)NCCO.O=[N+]([O-])c1cc([N+](=O)[O-])c(O)c([N+](=O)[O-])c1,inactive: 49.9%,inactive: 18.3%,inactive: 27.1%,inactive: -3%,inactive: 2.75%,inactive: 32.4%
CN(C)CCC(=O)CCN(C)C.O=[N+]([O-])c1cc([N+](=O)[O-])c(O)c([N+](=O)[O-])c1,inactive: 38%,inactive: 17.6%,inactive: 35.6%,inactive: 31.1%,inactive: 7.55%,inactive: 60.5%
CCCCC(CC)COP(O)OCC(CC)CCCC.[Zn+2] (stereo unspecified),inactive: -11.4%,inactive: -16.4%,inactive: -14.3%,inactive: -11.6%,inactive: -14.7%,inactive: 0.05%
Cc1cc(=O)n(CC(C)C)n1CC(C)C.O=[N+]([O-])c1cc([N+](=O)[O-])c(O)c([N+](=O)[O-])c1,inactive: 37.5%,inactive: 3.75%,inactive: 33.5%,inactive: -18.7%,inactive: 4.7%,inactive: 17.1%
O=[N+]([O-])c1cc([N+](=O)[O-])c2nonc2c1O,inactive: 17.4%,inactive: 3.1%,inactive: 9.1%,inactive: -28.4%,inactive: -16.4%,inactive: 11.6%
CC(C)N1CCCCC1.O=[N+]([O-])c1cc([N+](=O)[O-])c(O)c([N+](=O)[O-])c1,inactive: -8%,inactive: -8%,inactive: 3.55%,inactive: -12.3%,inactive: 47.2%,inactive: 17.6%
Cc1ccc(C(=N)N)cc1.O=[N+]([O-])c1cc([N+](=O)[O-])c(O)c([N+](=O)[O-])c1,inactive: 17.1%,inactive: -2.25%,inactive: 8.95%,inactive: 14.2%,inactive: 0.05%,inactive: -4.55%
CCCOP(=S)(Cl)OCCC,inactive: 10.2%,inactive: 10.3%,inactive: 2.65%,inactive: 10.5%,inactive: -8.55%,inactive: 12.7%
CP(=O)(O)O.[Zr],inactive: -18.9%,inactive: -3.65%,inactive: -15.9%,inactive: 5.6%,inactive: -5.6%,inactive: 6.1%
COP(C)(=O)OC.COP(C)(=O)OC.COP(C)(=O)OC.COP(C)(=O)OC.COP(C)(=O)OC.COP(C)(=O)OC.[Cr+3].[O-][Cl+3]([O-])([O-])O,inactive: 0.5%,inactive: 3.45%,inactive: -7.15%,inactive: -2.95%,inactive: -6.45%,inactive: 19.5%
CCN(CC)CCOC(=O)C(O)(c1cc(C)c(C)c(C)c1)C1CCCCC1 (stereo unspecified),inactive: 35.5%,inactive: -2.15%,inactive: 20.6%,inactive: -57%,inactive: 2.3%,inactive: 15%
O=[N+]([O-])C(F)(CN(COCN(CC(F)([N+](=O)[O-])[N+](=O)[O-])CC(F)([N+](=O)[O-])[N+](=O)[O-])CC(F)([N+](=O)[O-])[N+](=O)[O-])[N+](=O)[O-],active: 86.5%,active: 92.4%,active: 89.6%,active: 90.4%,active: 89.3%,active: 89.7%
CC(C)OP(C)(=O)O.[Gd],inactive: 5.85%,inactive: 0.2%,inactive: 10.4%,inactive: -18.1%,inactive: -6%,inactive: 12.7%
CC(=O)[CH-]C(=O)c1ccccc1.CC(=O)[CH-]C(=O)c1ccccc1.O=C([O-])C([O-])(c1ccccc1)c1ccccc1.O=C([O-])C([O-])(c1ccccc1)c1ccccc1.[Ti+4],inactive: 19.9%,inactive: 3.55%,inactive: 29.7%,inactive: -8.65%,inactive: 23.2%,inactive: 17.4%
C=C1C(=O)C2CCN1CC2.O=[N+]([O-])c1cc([N+](=O)[O-])c(O)c([N+](=O)[O-])c1,inactive: 23.2%,inactive: 24.3%,inactive: 27.5%,inactive: 23.8%,inactive: 17.2%,inactive: 50.8%
CC(C)CC(C)NCC(C)O.O=[N+]([O-])c1cc([N+](=O)[O-])c(O)c([N+](=O)[O-])c1,inactive: 47.3%,inactive: 17.7%,inactive: 38.1%,inactive: -0.25%,inactive: -1.15%,inactive: 19.6%
O=C1CC(CC([N+](=O)[O-])([N+](=O)[O-])[N+](=O)[O-])C(=O)O1 (stereo unspecified),inactive: 4.4%,inactive: 4.9%,inactive: 1.05%,inactive: 0.95%,inactive: 3.45%,inactive: 5.05%
CCSP(N)(=O)CC (stereo unspecified),inactive: 6.8%,inactive: 32.6%,inactive: 0.8%,inactive: -13.8%,inactive: -29.6%,inactive: 16.7%
O=[N+]([O-])c1cc([N+](=O)[O-])c(O)c([N+](=O)[O-])c1.c1cncc(C2CCCN2)c1,inactive: 2.75%,inactive: -8.7%,inactive: 22.4%,inactive: 7.5%,inactive: 15%,inactive: 13.4%
CCC(C)NC(C)(C)CO.O=[N+]([O-])c1cc([N+](=O)[O-])c(O)c([N+](=O)[O-])c1,inactive: 22.6%,inactive: 11.2%,inactive: 13.3%,inactive: -15.4%,inactive: -10.3%,inactive: 11.2%
CC(C)(C)C1COP(C)(=S)OC1 (stereo unspecified),inactive: -9.15%,inactive: -4.3%,inactive: -0.4%,inactive: -16.5%,inactive: 19.9%,inactive: -10.6%
Nc1c([N+](=O)[O-])cc([N+](=O)[O-])c(N)c1[N+](=O)[O-],inactive: 18.7%,inactive: 20.9%,inactive: 18.2%,inactive: -15.4%,inactive: 2.4%,inactive: 17.6%
CCN(CC)CCOC(=O)C(O)(c1ccccc1C)c1ccccc1C,inactive: -5.25%,inactive: -10.4%,inactive: -16.1%,inactive: -5.1%,inactive: -11.9%,inactive: -8.7%
CCCCC(CCCC)NCC(C)O.O=[N+]([O-])c1cc([N+](=O)[O-])c(O)c([N+](=O)[O-])c1,inactive: 42.5%,inactive: 16.9%,inactive: 37.2%,inactive: -2.05%,inactive: 4.45%,inactive: 36%

SMILES,growth inhibition [1],growth inhibition [2],growth inhibition [3],growth inhibition [4],growth inhibition [5],growth inhibition [6]
COc1nncc2ccccc12.O=[N+]([O-])c1cc([N+](=O)[O-])c(O)c([N+](=O)[O-])c1,inactive: 46.8%,inactive: 4.25%,inactive: 29.5%,inactive: -3.05%,inactive: 2.7%,inactive: 8.05%
C/C=C/Sc1ccccn1.O=[N+]([O-])c1cc([N+](=O)[O-])c(O)c([N+](=O)[O-])c1,inactive: 37.6%,inactive: 14.9%,inactive: 42.5%,inactive: 18.8%,inactive: -3.55%,inactive: 25.3%
COP(C)(=O)OC.COP(C)(=O)OC.COP(C)(=O)OC.COP(C)(=O)OC.COP(C)(=O)OC.COP(C)(=O)OC.[Al+3].[O-][Cl+3]([O-])([O-])O,inactive: 4.45%,inactive: 9.25%,inactive: 6.65%,inactive: -26.6%,inactive: -3.15%,inactive: 26%
O=C(OCCC(F)([N+](=O)[O-])[N+](=O)[O-])OCC(F)([N+](=O)[O-])[N+](=O)[O-],active: 90.7%,active: 92.8%,active: 92.5%,active: 90.8%,active: 91%,active: 89%
COC(=O)C(C)(C)C(OP(C)(=O)OC)=C(C)C (stereo unspecified),inactive: -4.8%,inactive: 0.65%,inactive: -0.35%,inactive: 24.4%,inactive: 13.1%,inactive: 11.1%
CCP1(=O)Nc2ccc(Cl)cc2N1 (stereo unspecified),inactive: -3.3%,inactive: 15.6%,inactive: -1.75%,inactive: -29.6%,inactive: 3.6%,inactive: 12.3%
CCCCCCC[CH2][Sn]([CH2]CCCCCCC)([O]c1c([N+](=O)[O-])cc([N+](=O)[O-])cc1[N+](=O)[O-])[O]c1c([N+](=O)[O-])cc([N+](=O)[O-])cc1[N+](=O)[O-],inactive: 13.2%,inactive: -21.1%,inactive: -5.6%,inactive: 1.6%,inactive: -17.5%,inactive: 9.05%
CCCCCCCC(C)NCCO.O=[N+]([O-])c1cc([N+](=O)[O-])c(O)c([N+](=O)[O-])c1,inactive: 58.5%,inactive: 27.4%,inactive: 57%,inactive: 15%,inactive: 8.05%,inactive: 38%
C[N+]1(CCCCCC[N+]2(C)CCCCCC2)CCCCCC1.O=[N+]([O-])c1cc([N+](=O)[O-])c(O)c([N+](=O)[O-])c1,inactive: -15.8%,inactive: -8.35%,inactive: -17.6%,inactive: -12.4%,inactive: -19.5%,inactive: -1.75%
CN(C)c1ccccc1.O=[N+]([O-])c1cc([N+](=O)[O-])c(O)c([N+](=O)[O-])c1,inactive: 15%,inactive: 3%,inactive: 23.2%,inactive: 3.35%,inactive: 7.5%,inactive: 29.6%
O=[N+]([O-])c1ncn(F)c1[N+](=O)[O-],inactive: 15.9%,inactive: 12.4%,inactive: 15.7%,inactive: -1.1%,inactive: 12.1%,inactive: 15.1%
CCCCCCC(C)NCCCO.O=[N+]([O-])c1cc([N+](=O)[O-])c(O)c([N+](=O)[O-])c1,inactive: 34.6%,inactive: 0.75%,inactive: 31%,inactive: -22.9%,inactive: 7.25%,inactive: 19.4%
[N-]=[N+]=NC1(N=[N+]=[N-])C(=O)NC(=O)NC1=O,inactive: 5.8%,inactive: 2.8%,inactive: 2.55%,inactive: 12.8%,inactive: 9.3%,inactive: 0.4%
OCCSCCO,inactive: 51.8%,inactive: 10.5%,inactive: 57.2%,inactive: -31.4%,inactive: 1.35%,inactive: 64.7%
NNC(NN)NN.n1nc(-c2nn[nH]n2)n[nH]1,inactive: -23.3%,inactive: -1.5%,inactive: 6.15%,inactive: 7.55%,inactive: 27.4%,inactive: 8.75%
C1CN1.[Cl][Pt][Cl],inactive: -8.8%,inactive: 3.05%,inactive: -7.3%,inactive: 7.15%,inactive: 22.9%,inactive: 6.65%
CN(C)CC1CCCC(CN(C)C)C1OC(=O)C(O)(c1ccccc1)c1ccccc1 (stereo unspecified),inactive: -3.1%,inactive: 8.45%,inactive: -6.4%,inactive: -44.5%,inactive: -0.1%,inactive: 13.8%
[C-]#N.[C-]#[O+].[C-]#[O+].[C-]#[O+].[C-]#[O+].[C-]#[O+].[Cr],inactive: -0.65%,inactive: 11.7%,inactive: 2.7%,inactive: -87.1%,inactive: -33.4%,inactive: -9.3%
O=[N+]([O-])c1cc([N+](=O)[O-])c(O)c([N+](=O)[O-])c1.c1cc(CCCSCCCc2ccncc2)ccn1,inactive: 48.7%,inactive: 20.1%,inactive: 58.8%,inactive: 37.7%,inactive: 17.1%,inactive: 43.3%
CCC([N+](=O)[O-])[N+](=O)[O-],inactive: 13.8% and inactive: 14.9%,inactive: 20.5% and inactive: 9.5%,inactive: 7.05% and inactive: 27.1%,inactive: 7.3% and inactive: 16.2%,inactive: 5.35% and inactive: -6.55%,inactive: 25.5% and inactive: 15.9%
O=[N+]([O-])N1CCN([N+](=O)[O-])CC1,inactive: -24.4%,inactive: 1.35%,inactive: -9.75%,inactive: -27.4%,inactive: -14.8%,inactive: -14.7%
CCN(CC)CCOC(=O)C(O)(c1ccc(C)cc1)C1CCCCC1 (stereo unspecified),inactive: 0.15%,inactive: 2.7%,inactive: -0.45%,inactive: -22.2%,inactive: 4.25%,inactive: 4.8%
N=P(c1ccccc1)(c1ccccc1)c1ccccc1.[C-]#N.[C-]#N.[C-]#N.[C-]#N.[C-]#N.[C-]#N.[Fe+6],inactive: 5.5%,inactive: -7.3%,inactive: -9.3%,inactive: -11.3%,inactive: 1.55%,inactive: 1.7%
Cc1cn(C2CC3O[P@](C)(=O)OCC3O2)c(=O)[nH]c1=O (stereo partly specified),inactive: 10.8%,inactive: 2.3%,inactive: 6.3%,inactive: 12.2%,inactive: 13.8%,inactive: 8.9%
COP(C)(=O)OC.COP(C)(=O)OC.COP(C)(=O)OC.COP(C)(=O)OC.COP(C)(=O)OC.COP(C)(=O)OC.[Fe+3].[O-][Cl+3]([O-])([O-])O,inactive: -0.4%,inactive: 22.4%,inactive: 13.6%,inactive: -9.75%,inactive: -8.8%,inactive: 23.8%
